Tested on: M1 RNA (80 queC, cytidine 34 replaced with uridine)
Assay: In-line probing analysis of 80 queC mutant M1
Format: binding, B. subtilis
Conditions: M1 (C34U)

For `Nc1nc2nc[nH]c2c(=O)[nH]1` [guanine], the structure modulation (200 μM) was “No structure modulation is observed” and the “binding to M1 RNA” value (in words) was “no binding”.
